A word on the IC50: it is the concentration that inhibits the measured activity by half.

The chains behind the UniProt entries cited, without tags or fusion partners. Where a name states a change or a piece, a line headed by the entry shows the natural chain unless it says otherwise.
UniProt P11229: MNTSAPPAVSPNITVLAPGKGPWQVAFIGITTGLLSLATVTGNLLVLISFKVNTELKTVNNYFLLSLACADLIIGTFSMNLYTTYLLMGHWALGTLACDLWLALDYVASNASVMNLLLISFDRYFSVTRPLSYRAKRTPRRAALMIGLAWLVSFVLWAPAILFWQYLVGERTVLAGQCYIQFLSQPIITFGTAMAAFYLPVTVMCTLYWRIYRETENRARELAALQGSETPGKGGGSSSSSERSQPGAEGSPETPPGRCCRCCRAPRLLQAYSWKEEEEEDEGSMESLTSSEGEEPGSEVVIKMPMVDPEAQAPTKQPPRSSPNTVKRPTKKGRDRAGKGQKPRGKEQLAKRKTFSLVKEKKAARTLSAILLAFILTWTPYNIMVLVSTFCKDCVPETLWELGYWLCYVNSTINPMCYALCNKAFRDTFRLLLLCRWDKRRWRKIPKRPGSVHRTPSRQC

Drawing on patent US8741930B2 (dated 2014), this text covers IC50 for 1 compound.

In the experiment the target is human recombinant muscarinic M-1 receptors (Homo sapiens, UniProt P11229). Nature of the experiment: biochemical.

In the case of `O=C1Cc2ccccc2C(=C2CCNCC2)c2ccsc21` (racemic) [Norketotifen], the IC50 amounted to 1.44 µM.
